The values below come from US4870071A, “Prophylactic and therapeutic agnet for hepatic disorder” (Senju Pharmaceutical Co., Ltd., priority 1986, dated 1989).

Molecules are shown by their SMILES. Where a name gives a salt, the structure may show the parent alone.

Series [1] can be described thus: Acute toxicity in mice, intravenous injection (LD50). The settings on record: mouse, in vivo, iv, LD50, mice. From the text:
(§1) Acute toxicity of the compounds according
(§2) to the invention in terms of LD50
(§3) Referring to the above table, the injection No. 1 was adjusted to pH 7.0-7.2 by adding sodium carbonate after dissolution of the sample.

For another series, the system named is mice. The description is as above. The settings on record: mice, male.
Text: as §1, §2, §3

As usually defined, the LD50 is the dose at which mortality reaches 50%. For the compound `O=C(O)C1CSC(C(O)C(O)C(O)C(O)C(=O)O)N1` (centres unmarked) [CGCa, Calcium cysteineglucuronate], the 50% lethal dose (LD50) turned out to be 200 mg/kg in series [1] (female) and 100 mg/kg in series [1] (male).
For `O=C(O)C1CSC(C(O)C(O)C(O)C(O)C(=O)O)N1` (centres unmarked) [CGMg, Magnesium cysteineglucuronate], in the series with mice (listed as Magnesium salt), the LD50 is reported as 250 mg/kg.
`O=C(O)C1CSC(C(O)C(O)C(O)C(O)C(=O)O)N1` (centres unmarked) [Dipotassium salt]: the 50% lethal dose (LD50) with mice turned out to be 250 mg/kg.
In series [1] (male and female, injection adjusted to pH 7.0-7.2 with sodium carbonate), `O=C(O)C1CSC(C(O)C(O)C(O)C(O)C(=O)O)N1` (centres unmarked) [Monosodium salt, Monosodium cysteineglucuronate] yielded an LD50 of 2500 mg/kg.
